From patent US9850283B2, “Macrocyclic inhibitors of the PD-1/PD-L1 and CD80(B7-1)/PD-L1 protein/protein interactions” (BRISTOL-MYERS SQUIBB COMPANY, priority 2013, dated 2017)

Amino acid sequences for entries named in this document (tags omitted). Chains listed by the source or under a name are the forms on record and can include a tag or linker.
UniProt Q9NZQ7, with tags, fused parts or gaps: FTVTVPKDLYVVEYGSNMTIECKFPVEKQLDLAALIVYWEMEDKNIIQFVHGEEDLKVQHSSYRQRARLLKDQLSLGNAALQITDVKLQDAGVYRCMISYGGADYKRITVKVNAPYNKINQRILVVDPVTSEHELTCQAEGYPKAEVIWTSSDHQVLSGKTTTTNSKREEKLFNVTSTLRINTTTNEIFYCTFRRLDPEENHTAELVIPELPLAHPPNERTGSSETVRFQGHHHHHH

Molecular target: T1, Human PD-L1/PD-1 (Homo sapiens, UniProt Q9NZQ7)
T1 construct: made in house; host or cells: HEK293T
Assay: HTRF PD-1-Ig/PD-L1-His binding assay (human PD-L1)
Details: Table 8, Compound No. 1 variant macrocyclic peptides
From the text: The ability of the macrocyclic peptides of the present disclosure to bind to PD-L1 was investigated using a PD-1/PD-L1 Homogenous Time-Resolved Fluorescence (HTRF) binding assay.
Homogenous Time-Resolved Fluorescence (HTRF) Assays of Binding of Soluble PD-1 to Soluble PD-L1. Soluble PD-1 and soluble PD-L1 refers to proteins with carboxyl-end truncations that remove the transmembrane-spanning regions and are fused to heterologous sequences, specifically the Fc portion of the human immunoglobuling G sequence (Ig) or the hexahistidine epitope tag (His). All binding studies were performed in an HTRF assay buffer consisting of dPBS supplemented with 0.1% (w/v) bovine serum albumin and 0.05% (v/v) Tween-20. […] PD-L1 fusion proteins from either human, cynomologous macaques, or mouse were used. HTRF detection was achieved using europium crypate-labeled anti-Ig monoclonal antibody (1 nM final) and allophycocyanin (APC) labeled anti-His monoclonal antibody (20 nM final). Antibodies were diluted in HTRF detection buffer and 5 μl was dispensed on top of binding reaction.

CCCC[C@H]1C(=O)N(C)[C@@H](CCCC)C(=O)N[C@@H](CCCNC(=N)N)C(=O)N[C@H](C(=O)NCC(N)=O)CSCC(=O)N[C@@H](Cc2ccccc2)C(=O)N(C)[C@@H](C)C(=O)N[C@@H](CC(N)=O)C(=O)N2CCC[C@H]2C(=O)N[C@@H](Cc2cnc[nH]2)C(=O)N[C@@H](CC(C)C)C(=O)N[C@@H](CO)C(=O)N[C@@H](Cc2c[nH]c3ccccc23)C(=O)N[C@@H](CO)C(=O)N[C@@H](Cc2c[nH]c3ccccc23)C(=O)N1C [Compound No. 57]
IC50: 9 nM
